Test system: 5′-nucleotidase

Question: With CC(C)OC(=O)[C@H](C)NP(=O)(OC[C@H]1O[C@@H](n2cnc3c(NCc4ccco4)ncnc32)[C@H](O)[C@@H]1O)Oc1ccccc1 (stereo partly drawn) [MB-711, Phenyl (Isopropoxy-L-alaninyl) Kinetin Riboside Phosphoramidate] as the compound, how does the “Substrate for 5′-nucleotidase activity” value read?
Answer: Its value is “could be used as a substrate in the substitution of AMP”.

Reference: publication PMC9837764 (Nature Communications, 2023)
